One assay deals with α1-GABAA receptor (Rattus norvegicus, UniProt P18508+P62813). Put plainly: Ligand-binding assay, radiolabeled flumazenil competition, rat cerebellum membranes. The following applies: radiolabeled flumazenil 1 nM, Ki from IC50 by Cheng-Prusoff, read-out: Ki, affinity for α1-GABAA receptor. How it is done: (§1) Determination of the affinity of test compounds for α1- and α2-GABAA receptor.
(§2) Male Sprague-Dawley rats weighing 200-250 g at the time of experiment were used. After decapitation of the animal, the cerebellum (tissue that mostly contains α1-GABAA receptor) and spinal cord (tissue that mostly contains α2-GABAA receptor) were removed. The membranes were prepared according to the method by J. Lameh et al. (Prog. Neuro-Psychopharmacol. Biol. Psychiatry, 24, 979-991, 2000). Once the tissues weighed, they were suspended in 50 mM Tris.HCl (pH 7.7), 1:40 (v/v), homogenized and then centrifuged at 20000 g for 10 min at 7° C. The resulting pellet was resuspended under the same conditions and centrifuged again. The pellet was finally resuspended on a minimum volume and kept at −80° C. overnight. On the next day, the process was repeated until the final pellet was resuspended at a ratio of 1:10 (v/v).
(§3) Affinity was determined by competitive tests using radiolabeled flumazenil as ligand. […] The next day the filters were counted using a Packard Mod. […]
(§4) Every concentrations of compound were tested in duplicate and their mean values were used to determine the experimental values of % specific binding versus the concentration of compound. […] Inhibition constants (Ki) were calculated from the IC50 values according to Cheng-Prusoff's formula (Y. Cheng y W. H. Prusoff, Biochem. Pharmacol., 22(23), 3099-3108, 1973).

For a further assay, the target named is α2-GABAA receptor (Rattus norvegicus, UniProt P18508+P23576). In words: Ligand-binding assay, radiolabeled flumazenil competition, rat spinal cord membranes. The following applies: radiolabeled flumazenil 1 nM, Ki from IC50 by Cheng-Prusoff, read-out: Ki, affinity for α2-GABAA receptor. How it is done: as §1, §2, §3, §4

Data on 1 compound can be found in patent US7947688B2, “N-[3-(3-substituted-pyrazolo[1,5-a]pyrimidin-7-yl)phenyl]-sulfonamides, and compositions, and methods related thereto” (Ferrer Internacional, S.A., priority 2003, dated 2011).

As a reminder, the Ki is a measure of affinity in units of concentration, obtained from inhibition or displacement.

Consider `CN(c1cccc(-c2ccnc3c(C(=O)c4cccs4)cnn23)c1)S(C)(=O)=O` [Example 3, N-methyl-N-{3-[3-(thiophene-2-carbonyl)-pyrazolo[1,5-a]pyrimidin-7-yl]-phenyl}-methanesulfonamide], for which the Ki stood at 0.0074 µM at α1-GABAA receptor and 0.0367 µM on α2-GABAA receptor.
